Results from patent publication US9975876B2, “2-pyridyloxy-3-ester-4-ether orexin receptor antagonists” (MERCK SHARP & DOHME CORP., priority 2013, dated 2018).

Sequences of proteins named here, by UniProt entry; tags and fusion partners are left off.
UniProt O43614, whole entry: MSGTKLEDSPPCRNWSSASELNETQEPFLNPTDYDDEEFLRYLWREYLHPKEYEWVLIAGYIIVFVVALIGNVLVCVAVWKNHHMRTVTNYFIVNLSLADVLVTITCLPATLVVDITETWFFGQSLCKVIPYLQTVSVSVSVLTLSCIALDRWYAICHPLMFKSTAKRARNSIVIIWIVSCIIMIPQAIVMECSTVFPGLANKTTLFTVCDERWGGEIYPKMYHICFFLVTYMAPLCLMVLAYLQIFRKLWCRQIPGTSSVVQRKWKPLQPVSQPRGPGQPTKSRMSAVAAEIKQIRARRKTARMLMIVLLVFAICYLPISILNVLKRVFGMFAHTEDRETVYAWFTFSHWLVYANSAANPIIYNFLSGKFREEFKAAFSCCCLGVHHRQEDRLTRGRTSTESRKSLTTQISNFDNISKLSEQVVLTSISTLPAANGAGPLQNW

Columns and labels:
hOX1R = hOX1R (Homo sapiens, UniProt O43613); assay: FLIPR Ca2+ flux assay, orexin-1 receptor antagonism; format: cell-based; conditions: CHO cells; agonist 70 pM Ala-6,12 human orexin-A
human orexin-2 receptor = human orexin-2 receptor (Homo sapiens (Human), UniProt O43614); assay: FLIPR Ca2+ flux assay, orexin-2 receptor antagonism; format: cell-based; conditions: CHO cells; agonist 70 pM Ala-6,12 human orexin-A; read-out: hOX2R FLIPR IC50
Procedure: In a typical experiment the OX1 and OX2 receptor antagonistic activity of the compounds of the present invention was determined in accordance with the following experimental method. For intracellular calcium measurements, Chinese hamster ovary (CHO) cells expressing the rat orexin-1 receptor or the human orexin-2 receptor, are grown in Iscove's modified DMEM containing 2 mM L-glutamine, […], 1% hypoxanthine-thymidine supplement, 100 U/ml penicillin, 100 μg/ml streptomycin and 10% heat-inactivated fetal calf serum (FCS). The cells are seeded at 20,000 cells/well into Becton-Dickinson black 384-well clear bottom sterile plates coated with poly-D-lysine. All reagents were from GIBCO-Invitrogen Corp. The seeded plates are incubated overnight at 37° C. and 5% CO2. […] Within the Fluorescent Imaging Plate Reader (FLIPR, Molecular Devices), test compounds are added to the plate in a volume of 25 μl, incubated for 5 min and finally 25 μl of agonist is added. Fluorescence is measured for each well at 1 second intervals for 5 minutes and the height of each fluorescence peak is compared to the height of the fluorescence peak induced by 70 pM Ala-6,12 orexin-A with buffer in place of antagonist. […] The intrinsic orexin receptor antagonist activity of a compound which may be used in the present invention may be determined by these assays.

**Q.** Which IC50 (hOX1R) does the source give for `CCOC(=O)c1c(OC)ccnc1O[C@@H]1CC[C@@H](C)N(C(=O)c2ccccc2-n2ncnn2)C1` [Example 29, Ethyl 4-methoxy-2-{[(3R,6R)-6-methyl-1-{[2-(2H-tetrazol-2-yl)phenyl]carbonyl}piperidin-3-yl]oxy}pyridine-3-carboxylate] here?
**A.** > 10000 nM

**Q.** And the IC50 (human orexin-2 receptor)?
**A.** 52 nM
